## Ab-91 heavy chain CDR variants: yeast mating affinities

From the AlphaSeq antibody data of Engelhart et al. 2022 (doi:10.1038/s41597-022-01779-4), copy in the FLAb collection.

Target: peptide PDVDLGDISGINAS, taken from heptad repeat 2 (HR2) of SARS-CoV-2 spike.

The variants keep the light chain, the linker and the frameworks of Ab-91 (scFv order VL, three GGGGS repeats, VH).
VL: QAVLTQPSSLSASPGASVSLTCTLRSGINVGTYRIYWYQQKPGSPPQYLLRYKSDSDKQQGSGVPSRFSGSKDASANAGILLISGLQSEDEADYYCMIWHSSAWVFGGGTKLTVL
VH: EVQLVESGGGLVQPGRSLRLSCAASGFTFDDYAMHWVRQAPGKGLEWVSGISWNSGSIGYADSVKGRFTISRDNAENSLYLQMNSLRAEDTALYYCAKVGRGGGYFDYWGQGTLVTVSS

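The starting antibody came from a phage panning campaign against this peptide. Library AAYL51 holds single substitutions and randomly drawn double and triple substitutions in the CDRs. In AlphaSeq, yeast of one mating type display the scFv and yeast of the other type display the target. Binding brings cells together so that they mate, and sequencing counts the barcode pairs among the diploids. Scores were corrected for input abundance and mapped to Kd with protein pairs of known affinity run in the same pool. Each pool was mated in three replicate cultures.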

Each variant is given by its three heavy chain CDRs, as the data file delimits them; those of the parent are GFTFDDYAMH, GISWNSGSIGYADSVK, VGRGGGYFDY.
Every variant below is changed at W53 of the VH (sequential numbering).
The Kd shown is the geometric mean over detected replicates; a lower Kd is a better binder.
"not detected" means that the variant was in the library but no mating with the target was seen in any replicate; the authors take this as a sign of poor binding, and no number exists.

CDR-H1	CDR-H2	CDR-H3	apparent Kd	replicates with signal	control signals
GFTFDDYAMH	GISVNSGSIGYFDSVK	VMRGGGYFDY	34 µM	2 of 3	2 of 9
GFTFDDYAMC	GISQNSGSLGYADSVK	VGRGGGYFDY	960 nM	3 of 3	2 of 9
GFTFDDYAAH	GISQNSGSIGYAMSVK	VGRGGGYFDY	not detected	0 of 3	0 of 9
GFTFDDYAMH	GISYNSGSTGYADSVK	VGFGGGYFDY	not detected	0 of 3	1 of 9
GFTFDDYAMY	GISMNSGSIGYADSAK	VGRGGGYFDY	29 µM	1 of 3	3 of 9
GFTFDDYAMH	GISNNSRSIGYADSVI	VGRGGGYFDY	7.8 µM	1 of 3	0 of 9
GFTFDDYAMH	GISYNHGSIGYADSYK	VGRGGGYFDY	240 µM	3 of 3	3 of 9
GLTFDDYAMH	GISFNSGSIGYADSVK	VTRGGGYFDY	75 µM	3 of 3	4 of 9
GFTFDDYAMH	GISYNSGSIGYAQSVK	VGRGGGQFDY	1.6 µM	3 of 3	3 of 9
GFTFDDYAMH	GISSNSLSIGYADSVK	VGRGGGYKDY	91 µM	2 of 3	4 of 9
GFTFDDYAMH	GWSGNSGSIGYADSVK	VGAGGGYFDY	not detected	0 of 3	0 of 9
GFTFDDYAMH	GISHHSGSIGYADSVK	VGRGGSYFDY	not detected	0 of 3	1 of 9
GFTFDDYAMH	GISCNSGSIGYADSVK	VGRGGGIFDY	420 µM	1 of 3	6 of 9
GFTFDDYAMH	GISYNSGSIGYADSVK	VGPGGGYFDY	not detected	0 of 3	0 of 9
GFTFDDYMMH	GISRNSGSIGYADSVK	RGRGGGYFDY	19 µM	2 of 3	2 of 9
GFTADDYAMH	GISPNSGSIGYVDSVK	VGRGGGYFDY	8.1 nM	3 of 3	0 of 9
GFTFDDYAMH	GISQNSGSIGYADSVK	AGRKGGYFDY	41 nM	3 of 3	0 of 9
GFTFDDYTMH	GISDNSGSIGYADSVK	VGRGGGYFDY	520 µM	1 of 3	1 of 9
GFTFDDYAMH	GISPNSGSIGKADQVK	VGRGGGYFDY	53 µM	3 of 3	7 of 9
MFTFDDYAMH	GISDNSGLIGYADSVK	VGRGGGYFDY	64 µM	2 of 3	5 of 9
GFTFDDYAMH	GISPNSGSMGYADSVK	VGRGGCYFDY	not detected	0 of 3	0 of 9
GFTFDDYAEH	GISENSGSIGYADSVK	VGRGGGYFDY	120 µM	3 of 3	4 of 9
GFTFDDYAMC	GISFNSGSIGYADSVK	VGRGGGHFDY	22 µM	1 of 3	3 of 9
GFTFDDYAMH	GISPNSGSIGYADSVK	VGRGGHYFDY	3.2 µM	1 of 3	1 of 9
GFTIDDYAMH	GISLNSGSGGYADSVK	VGRGGGYFDY	5.8 µM	1 of 3	1 of 9
GFTFDDYAMH	GISFNSGSIGYADSVK	VGEPGGYFDY	not detected	0 of 3	0 of 9
GFTFDDYAMH	GISYNSESIGYADSVK	VGRGGGYFAY	9.0 nM	3 of 3	3 of 9
GFTWDDYAMH	GISQNSGSIEYADSVK	VGRGGGYFDY	not detected	0 of 3	1 of 9
GFTFDDKCMH	GISANSGSIGYADSVK	VGRGGGYFDY	12 µM	1 of 3	2 of 9
GETFDDYIMH	GISVNSGSIGYADSVK	VGRGGGYFDY	not detected	0 of 3	1 of 9
GFTFDDYAMH	GISDNSGSIGYADSVK	VGRGGEYFDY	not detected	0 of 3	2 of 9
GPTFDDYAMH	GISTNSGSIGYADSVL	VGRGGGYFDY	32 µM	1 of 3	2 of 9
GFTQDDYAMH	GILLNSGSIGYADSVK	VGRGGGYFDY	not detected	0 of 3	0 of 9
GFTFDDYAMH	GISENSGSIGYADSVK	VGRGGGYFDY	14 µM	2 of 3	2 of 9
GFTFDDYAMQ	GISYNSGSIGYADSVK	VGRGGGYFDY	120 µM	2 of 3	2 of 9
GFTFDDYAMH	GISMNSGSIGYADSVK	VGLQGGYFDY	5.6 nM	3 of 3	1 of 9
GFTFDVYAMH	GISPNSGSIDYADSVK	VGRGGGYFDY	5.8 µM	1 of 3	0 of 9
GFTFDDYAMH	GISSNSGSIGYADSVK	VGRMGHYFDY	not detected	0 of 3	0 of 9
GFTFDDYAMH	GISRNSGSIGYALSFK	VGRGGGYFDY	1.5 µM	3 of 3	3 of 9
KFTFDDYAMH	GISINSESIGYADSVK	VGRGGGYFDY	not detected	0 of 3	2 of 9
GFTFDDYAMH	GISCNSGRIGSADSVK	VGRGGGYFDY	not detected	0 of 3	0 of 9
GFTFDDYAMH	GISSNSGSIGYADSVK	VGRGGTYFSY	not detected	0 of 3	0 of 9
GFTFDDYAMH	GISGNSGSIGYADSVK	VGRGGGYFDY	not detected	0 of 3	0 of 9
GFTFDDYAMH	GISMNSGSIGYQDSTK	VGRGGGYFDY	not detected	0 of 3	0 of 9
GFTFDDYAMH	GISTNSGSAGYADSVK	VGRGGKYFDY	8.2 µM	3 of 3	5 of 9

A selection of 6 entries from above:

| CDR-H1 | CDR-H2 | CDR-H3 | apparent Kd | replicates with signal | control signals |
|---|---|---|---|---|---|
| GFTFDDYAEH | GISENSGSIGYADSVK | VGRGGGYFDY | 120 µM | 3 of 3 | 4 of 9 |
| GFTIDDYAMH | GISLNSGSGGYADSVK | VGRGGGYFDY | 5.8 µM | 1 of 3 | 1 of 9 |
| GFTFDDYAAH | GISQNSGSIGYAMSVK | VGRGGGYFDY | not detected | 0 of 3 | 0 of 9 |
| GFTFDDYAMH | GISDNSGSIGYADSVK | VGRGGEYFDY | not detected | 0 of 3 | 2 of 9 |
| GFTFDVYAMH | GISPNSGSIDYADSVK | VGRGGGYFDY | 5.8 µM | 1 of 3 | 0 of 9 |
| GFTFDDYAMH | GISYNHGSIGYADSYK | VGRGGGYFDY | 240 µM | 3 of 3 | 3 of 9 |

In this assay the parent's reference entry averaged 72 nM; its copy inside this library read 7.5 nM.
Background: pairings of library AAYL51 with three empty control strains gave a value in 21% of cases (median 34 µM, 5th percentile 1.8 µM). Values in that range, when seen in few replicates, are hard to tell from nonspecific mating. The control count says in how many pairings with the empty strains this scFv gave a signal.